Experiments:
5HT2c receptor = target: T1, 5HT2c receptor (Rattus norvegicus, UniProt P08909); conditions: read-out: Kd(LSD); cell lines derived from tumors of 5HT2c-transformed NIH 3T3 cells; cited from earlier work
T1 sequence (P08909 33-460): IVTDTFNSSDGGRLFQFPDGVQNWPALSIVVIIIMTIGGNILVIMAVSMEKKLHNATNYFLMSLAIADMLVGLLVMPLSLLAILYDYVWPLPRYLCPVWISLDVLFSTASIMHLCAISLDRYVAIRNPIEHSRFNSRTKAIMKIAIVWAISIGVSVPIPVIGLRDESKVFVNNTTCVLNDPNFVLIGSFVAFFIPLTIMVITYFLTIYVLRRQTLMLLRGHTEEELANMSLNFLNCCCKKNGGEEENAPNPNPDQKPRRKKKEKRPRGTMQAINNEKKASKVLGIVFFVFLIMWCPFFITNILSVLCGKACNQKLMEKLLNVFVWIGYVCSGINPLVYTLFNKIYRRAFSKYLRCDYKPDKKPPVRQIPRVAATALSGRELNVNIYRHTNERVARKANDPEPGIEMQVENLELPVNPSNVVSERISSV

5HT2c serotonin receptor = 5HT2c serotonin receptor (Rattus norvegicus, UniProt P08909); conditions: tritiated LSD; membranes from GFP-selected HEK 293 cells expressing 5HT2c

For lysergic acid diethylamine [LSD], the Kd (5HT2c receptor) is given as 2.2 nM and the Kd (5HT2c serotonin receptor) is given as roughly 1 nM.
